{"source": "patent US11767504B2", "about": "“Albumin compositions and methods of producing and using same” (Albcura Corporation, priority 2020, dated 2023)"}
{"tested_on": "Insulin", "assay": "Assay of insulin aggregation stabilization by various albumin (absorbance at 360 nm)", "type": "biochemical", "details": "1−(A360 with albumin)/(A360 of (−) group), at time point where control A360 near 0.35; albumin samples 2 mg/mL mixed 1:1 with 0.7 mg/mL insulin working solution, 37° C.", "method": "Various albumin samples were diluted to 2 mg/mL in purified water. An assay working solution was prepared containing 60 mM of HEPES (pH=7.4), 300 mM of NaCl, 30 mM of 2-mercaptoethanol, and 0.7 mg/mL of Insulin. In a 96-well plate, 100 μL of the assay working solution was mixed with 100 μL of each albumin sample. The plate was incubated at 37° C. inside a plate reader, and the absorbance at 360 nm was measured every 30 seconds for 60 minutes.\nThe absorbance data at 360 nm (A360) of each group was picked at the time point where the A360 of the control group (without albumin, labeled as (−)) was near 0.35. The data is depicted in FIG. 4 and the efficiency of the albumin's stabilizing effect was calculated by the equation below, and is summarized in Table 6 below. Stabilizing Efficiency %=1−(A360 of experimental group with albumin)/(A360 of (−) group)", "units": {"Stabilizing Efficiency": "%"}}
{"substance": "pHSA: Plasma-derived human serum albumin from Taiwan Blood Services Foundation (TBSF)", "Stabilizing Efficiency": 23}
{"substance": "rHSA (Optibumin ™): Recombinant human serum albumin (O. sativa) from InVitria, Optibumin", "Stabilizing Efficiency": 39}
{"substance": "rHSA (S. cerevisiae): Recombinant human serum albumin (S. cerevisiae) from Sigma Aldrich (A6608)", "Stabilizing Efficiency": 71}
